Laboratory results: patent publication US12383566B2, “Inhibition of SLC transporter activity or expression to attenuate anthracycline-induced cardiotoxicity” (Northwestern University, priority 2021, dated 2025)

Tested on: Mouse model of doxorubicin-induced cardiomyopathy
Assay: Mouse model of doxorubicin-induced cardiomyopathy, echocardiographic evaluation
Assay type: in vivo, C57BL/6J mice
Conditions: Base line; Mean
Text: Procedures followed were in accordance with Stanford University's institutional guidelines. […] For the control group, we treated mice with corn oil in the same schedule as desipramine administration. We recorded an echocardiogram once a week (day 0, day 7, day 14, and day 21) and terminated the experiment at day 21.
For the control group, we treated mice with corn oil in the same schedule as desipramine administration. We recorded an echocardiogram once a week (day 0, day 7, day 14, and day 21) and terminated the experiment at day 21.
Echocardiographic evaluation. Mice were studied at baseline and weekly during the protocol under light anesthesia with isoflurane (induction 3%, maintenance 1.5%). 2D images in the parasternal short axis were obtained with a GE Vivid 7 ultrasound system (GE Healthcare) equipped with a 13 MHz transducer. Left ventricular end-systolic (LVESD) and end-diastolic (LVEDD) dimensions were measured and left ventricular fractional shortening (FS) was calculated.

COc1cccc2c1C(=O)c1c(O)c3c(c(O)c1C2=O)C[C@@](O)(C(=O)CO)C[C@@H]3O[C@H]1C[C@H](N)[C@H](O)[C@H](C)O1 [DOX, doxorubicin]
IVSs (LV interventricular septum thickness at systole): 1.04 mm
